Tests used:
human ETA receptor = biological target: T1, human ETA receptor (Homo sapiens, UniProt P25101); assay: ETA/ETB selectivity: (125I)ET-1 competition binding, CHO cells transfected with human ETA receptor (hET-A); conditions: 0.1 nM (125I)ET-1
T1 construct: expressed in transfected cells; host or cells: CHO cells, permanently transfected
Experimental: The mixture was centrifuged at 1000×g for 10 min. The supernatant was collected and centrifuged at 60,000×g for 60 min. The precipitate was resuspended in 20 mM Tris, pH 7.4 containing protease inhibitor and centrifuged again. The final membrane pellet was resuspended in 20 mM Tris, pH 7.4 containing protease inhibitors and stored at −80° C. until used. Protein content was determined by the Bio-Rad dye-binding protein assay.
Binding assays were performed in 96-well microtiter plates pretreated with 0.1% BSA. […] After incubation, unbound ligands were separated from bound ligands by a vacuum filtration method using glass-fiber filter strips in PHD cell harvesters (Cambridge Technology, Inc., MA), washing the filter strips three times with saline (1 mL). Nonspecific binding was determined in the presence of 1 μM ET-1. IC50 values are calculated using an average of at least two separate determinations.

The chains behind the UniProt entries cited, without tags or fusion partners. Residues count along the entry.
UniProt P25101, 21-427: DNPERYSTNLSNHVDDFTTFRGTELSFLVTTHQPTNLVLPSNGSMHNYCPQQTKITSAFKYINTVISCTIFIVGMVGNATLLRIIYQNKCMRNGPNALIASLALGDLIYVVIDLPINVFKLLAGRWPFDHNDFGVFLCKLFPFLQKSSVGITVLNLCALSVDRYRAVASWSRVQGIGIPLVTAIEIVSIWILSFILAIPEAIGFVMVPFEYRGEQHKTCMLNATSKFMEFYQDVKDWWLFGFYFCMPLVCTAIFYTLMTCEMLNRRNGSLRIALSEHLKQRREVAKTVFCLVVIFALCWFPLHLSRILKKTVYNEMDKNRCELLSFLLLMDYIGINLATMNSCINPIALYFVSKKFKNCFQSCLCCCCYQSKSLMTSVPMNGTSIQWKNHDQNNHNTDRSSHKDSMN

human ETB receptor = biological target: T2, human ETB receptor (Homo sapiens, UniProt P24530); assay: ETA/ETB selectivity: (125I)ET-3 competition binding, CHO cells transfected with human ETB receptor (hET-B); conditions: 0.1 nM (125I)ET-3
T2 construct: expressed in transfected cells; host or cells: CHO cells, permanently transfected
T2 sequence (P24530 27-442): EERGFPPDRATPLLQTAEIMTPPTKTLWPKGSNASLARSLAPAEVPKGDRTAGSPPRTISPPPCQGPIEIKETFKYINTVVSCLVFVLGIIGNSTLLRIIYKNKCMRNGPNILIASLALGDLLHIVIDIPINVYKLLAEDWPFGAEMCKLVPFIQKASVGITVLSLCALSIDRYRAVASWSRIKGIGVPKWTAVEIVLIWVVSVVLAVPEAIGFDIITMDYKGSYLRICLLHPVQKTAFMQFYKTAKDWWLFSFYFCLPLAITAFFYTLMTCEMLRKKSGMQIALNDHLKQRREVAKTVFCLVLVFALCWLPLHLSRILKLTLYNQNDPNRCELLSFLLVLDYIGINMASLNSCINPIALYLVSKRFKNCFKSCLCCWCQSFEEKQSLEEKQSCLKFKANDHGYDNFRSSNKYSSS
Experimental: MMQ cells, porcine cerebellar tissues (known to contain ETB receptors) and chinese hamster ovary cells (CHO) permanently transfected with the human ETA or ETB receptor were homogenized in 25 ml of 10 mM Hepes (pH 7.4) containing 0.25 M sucrose and a protease inhibitor [50 mM EDTA, 0.1 mM PMSF, 5 μg/ml Pepstatin A, and 0.025% Bacitracin] using a micro ultrasonic cell disrupter. The mixture was centrifuged at 1000×g for 10 min. The supernatant was collected and centrifuged at 60,000×g for 60 min. The precipitate was resuspended in 20 mM Tris, pH 7.4 containing protease inhibitor and centrifuged again. The final membrane pellet was resuspended in 20 mM Tris, pH 7.4 containing protease inhibitors and stored at −80° C. until used. Protein content was determined by the Bio-Rad dye-binding protein assay.
Binding assays were performed in 96-well microtiter plates pretreated with 0.1% BSA. Membranes prepared from cells were diluted 100 fold in Buffer B (20 mM Tris, 100 mM NaCl, 10 mM MgCl2, pH 7.4, with 0.2% BSA, 0.1 mM PMSF, 5 μg/mL Pepstatin A, 0.025% bacitracin, and 50 mM EDTA) to a final concentration of 0.2 mg/mL of protein. […] Nonspecific binding was determined in the presence of 1 μM ET-1. IC50 values are calculated using an average of at least two separate determinations.

Row | SMILES | IC50 (human ETA receptor) [µM] | IC50 (human ETB receptor) [µM]
1 | CCCCN(CCCC)C(=O)CN1C[C@H](c2cc(OC)c3c(c2)OCO3)[C@@H](C(=O)O)[C@@H]1CC(C)(C)CCC [compound 536] | 0.00092 | 52
2 | CCCCN(CCCC)C(=O)CN1CC(c2cc(OC)c3c(c2)OCO3)C(C(=O)O)C1CC(C)(C)CCC (stereo not shown) [compound 514] | 0.00036 | 9.8

Source: patent US7208517B1, “Endothelin antagonists” (Abbott Labortories, priority 1994, dated 2007)
